{"source": "patent US11779548B2", "about": "“Arylfluorosulfate compounds and methods” (THE SCRIPPS RESEARCH INSTITUTE, priority 2014, dated 2023)", "test": "in vivo", "conditions": "female, C57BL/6, mouse, 8.3 mg/kg, female C57BL/6 mice, plasma"}
{"smiles": "C[C@]12CC[C@@H]3c4ccc(OS(=O)(=O)F)cc4C[C@@H](CCCCCCCCC[S+]([O-])CCCC(F)(F)C(F)(F)F)[C@H]3[C@@H]1CC[C@@H]2O", "note": "(stereo partly drawn) [11F, (7R,8R,9S,13S,14S,17S)-17-Hydroxy-13-methyl-7-(9-((4,4,5,5,5-pentafluoropentyl)sulfinyl)nonyl)-7,8,9,11,12,13,14,15,16,17-decahydro-6H-cyclopenta[a]phenanthren-3-yl sulfurofluoridate]", "values": [{"measurement": "half-life", "setting": "po, T1/2, P.O. 8.3 mg/kg", "value": "~4", "unit": "h"}, {"measurement": "half-life", "setting": "sc, T1/2, S.C. 8.3 mg/kg", "value": 9.51, "unit": "h"}]}
